The subject of the experiment is A549 cells. The experiment can be described thus: growth inhibition of A549 cells (CCK-8). The experiment is classed as cell-based. The note with it: A549 (Kras mutation, Her2 negative), 72 hours. The method, then:
Briefly, cells were detached by using 0.25% (vol/vol) trypsin and suspended in complete medium. Aliquots of cells were plated into 96-well microdilution plates. […] After 72 hours, plates were washed twice with PBS (pH 7.5), and analyzed for relative cell proliferation with CCK-8 reagent.
After 72 hours, plates were washed twice with PBS (pH 7.5), and analyzed for relative cell proliferation with CCK-8 reagent.

For D-Lmcc-Bat0606, the “inhibition of growth of A549 cells” value is on record as “did not inhibit”.

The values are drawn from patent US9345786B2, “Maytansinoid derivatives” (priority 2013, dated 2016).
